Measurements taken from article PMC11302665.

How the values were obtained:
[1] = biological target: L-cysteine desulfurase IscS (E. coli) (UniProt P0A6B7); assay: native MS; ~8 µM IscS (~4 µM dimeric IscS) titrated with increasing TusA in 250 mM ammonium acetate, pH 8.0; fractional intensities fitted to a sequential binding model (Dynafit)
[2] = biological target: R220/223/225E triple variant of IscS (E. coli) (UniProt P0A6B7); assay: as above

stoichiometry N (TusA per IscS dimer) [1]: 2 | Kd [2]: 50 µM | stoichiometry N (TusA per IscS dimer) [2]: 2
Substance: TusA (from UniProt P0A890 1-81) (natural protein)
